According to BindingDB's records for doi:10.1021/jm00051a003 (University of Washington, 1995):

Experiment: Tested for the binding affinity against the Delta opioid receptor in guinea pig brain using [3H]DPDPE

Oc1ccc2c3c1O[C@H]1[C@H](O)CC[C@@]4(O)[C@@H](C2)N(CC2CC2)CC[C@]314 showed an IC50 of 26 nM.
